In the library only some 2.1% were active in any assay of this set; here they are far more common.
PDI turbidity: inhibitors of human protein disulfide isomerase. P07237. PDI insulin aggregation turbidity, A650, 90 min. inhibition, % at 10 µM. 350,000 compounds, 0.052% hits. AID 588391;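 active means mean inhibition across replicates of 30% or more, whatever share of single replicates reach that level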
Yeast UUG start-1: modulators of yeast start codon fidelity, primary screen, whole organism, S. cerevisiae, single point, plate reader | AID 602363, 2012 | S. cerevisiae UUG-firefly luciferase reporter, luminescence/redox ratio | activity score, % at 18.7 µM | hit rate 0.13% among 350,000;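 active = replicate mean at a twofold rise or more, about +100% in these data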;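 also: firefly luciferase made from a UUG start codon reports start codon fidelity; reporter light over untreated wells divided by growth signal over untreated wells; some hits fall short of that in this replicate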
INS-1E GSIS act: GLuc luminescence reporter in INS-1E cells, primary screen for activators of glucose-dependent secretion of insulin; INS-1E GLuc reporter insulin secretion, 2-3 h; activation, % at 16.6 µM; 370,000 compounds, 0.61% hits;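 active means lowest replicate activation of at least 40%, so every replicate reaches that level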
SMARCA2 act: SMARCA2 function activation, primary screen; 370,000 compounds, 1% hits; MG213 cells, MMTV-luciferase reporter, dexamethasone, overnight; activation, % at 9.1 µM; in the data active means activation above about 7.8%
ERp5 block: blocks human ERp5 reductase activity on insulin; ERp5 insulin aggregation, absorbance 650 nm, 90 min; inhibition, % at 9.99 µM; 350,000 compounds, 0.05% hits; AID 651711;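 active means mean replicate inhibition above about 25%, with every replicate also reaching it, limit read from the data, passing the limit was not always enough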
NR1D1 modulator: modulators of human Rev-erb alpha DNA binding. 370,000 compounds, 0.79% hits. Rev-erbα–FITC-DNA binding, fluorescence polarization, 90 min. activity, % at 10 µM. AID 1259318. P20393;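 active means activity above about 14%, limit read from the data; passing the limit was not always enough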
Yeast UUG start-2: alters UUG start codon use in yeast; shares compounds with Yeast UUG start-1; activation, % at 38 µM; S. cerevisiae UUG-start firefly luciferase, luminescence, 4 h; 100% means double the DMSO signal; 540 tested, under 10 active;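 active means signal increase whose fitted curve reaches an absolute level of 40 at a concentration under 10 µM; inactive means activity opposite to the expected increase, or the rest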
Of the large screens only hits and unclear results are named; the others gave an inactive call (follow-up assays come after a bar, where they were run).

COc1ccc2c3c(n(C)c2c1)[C@@H](CO)N(C(=O)Nc1ccccc1F)CC31CN(C(C)=O)C1	none (no result: PDI turbidity, Yeast UUG start-1, SMARCA2 act, NR1D1 modulator)
C[C@@H]1CN([C@@H](C)CO)C(=O)c2cc(NS(C)(=O)=O)ccc2O[C@H]1CN(C)S(=O)(=O)c1ccc(F)cc1	none (no result: PDI turbidity, SMARCA2 act, NR1D1 modulator)
O=C(Cc1cccc2ccccc12)NCC(=O)N1CCN(Cc2cccc(C(F)(F)F)c2)CC1	Yeast UUG start-1 116 | Yeast UUG start-2 inactive
CN(N=Nc1ccccc1C(=O)O)C1CCCCC1	Yeast UUG start-1 169 (no result: INS-1E GSIS act) | Yeast UUG start-2 inactive
CN(C(=O)c1ccccc1Cl)C1CCCCC1	none (no result: ERp5 block)
CCCNC(=O)Nc1ccc2c(c1)C(=O)N(C)C[C@H](OC)[C@H](C)CN(Cc1cccnc1)[C@H](C)CO2	none (no result: PDI turbidity, SMARCA2 act, NR1D1 modulator)
O=C(C[C@@H]1C[C@H]2c3cc(NC(=O)C4CCC4)ccc3O[C@H]2[C@H](CO)O1)NCC1CC1	Yeast UUG start-1 104 (no result: PDI turbidity, SMARCA2 act, NR1D1 modulator) | Yeast UUG start-2 inactive
O=C(C[C@H]1C[C@@H]2c3cc(NC(=O)C4CCOCC4)ccc3O[C@@H]2[C@H](CO)O1)NC1CCCC1	Yeast UUG start-1 102 (no result: PDI turbidity, SMARCA2 act, NR1D1 modulator) | Yeast UUG start-2 inactive
O=C(C[C@@H]1C[C@H]2c3cc(NC(=O)C4CCOCC4)ccc3O[C@H]2[C@@H](CO)O1)NC1CCCC1	none (no result: PDI turbidity, SMARCA2 act, NR1D1 modulator)
COCC(=O)Nc1ccc2c(c1)[C@@H]1C[C@H](CC(=O)NC3CCCCC3)O[C@H](CO)[C@@H]1O2	Yeast UUG start-1 107 (no result: PDI turbidity, SMARCA2 act, NR1D1 modulator) | Yeast UUG start-2 inactive
O=C(N[C@H]1CC[C@H](CCn2cc(-c3ccccn3)nn2)O[C@@H]1CO)c1cccnc1	none (no result: PDI turbidity, SMARCA2 act, NR1D1 modulator)
C[C@@H]1CN([C@H](C)CO)C(=O)c2cc(NC(=O)CCC(F)(F)F)ccc2O[C@H]1CN(C)C(=O)NC1CCCCC1	none (no result: PDI turbidity, SMARCA2 act, NR1D1 modulator)
CO[C@@H]1CN(C)C(=O)c2cc(NC(=O)C3CCC3)ccc2OC[C@@H](C)N(C)C[C@@H]1C	none (no result: PDI turbidity, Yeast UUG start-1, SMARCA2 act, ERp5 block, NR1D1 modulator)
O=C(N[C@@H]1CC[C@H](CCn2cc(C3(O)CCCC3)nn2)O[C@@H]1CO)C1CCCCC1	none (no result: PDI turbidity, SMARCA2 act, NR1D1 modulator)
O=C(N[C@H]1CC[C@H](CCn2cc(C3(O)CCCC3)nn2)O[C@H]1CO)C1CCCCC1	Yeast UUG start-1 162 (no result: PDI turbidity, SMARCA2 act, NR1D1 modulator) | Yeast UUG start-2 inactive
O=C(NCC[C@H]1CC[C@H](NC(=O)C2CCCCC2)[C@H](CO)O1)c1cnccn1	Yeast UUG start-1 158 (no result: PDI turbidity, SMARCA2 act, NR1D1 modulator) | Yeast UUG start-2 inactive
O=S(=O)(N[C@H]1CC[C@@H](CCn2cc(C3(O)CCCC3)nn2)O[C@@H]1CO)c1ccc(F)cc1	Yeast UUG start-1 178 (no result: PDI turbidity, SMARCA2 act, NR1D1 modulator) | Yeast UUG start-2 inactive
CC(C)NC(=O)Nc1cccc2c1O[C@H](CN(C)C(=O)NC(C)C)[C@@H](C)CN([C@@H](C)CO)C2=O	none (no result: PDI turbidity, SMARCA2 act, NR1D1 modulator)
C[C@@H](NC(=O)C[C@H]1C=C[C@H](NC(=O)C2CC2)[C@H](CO)O1)c1ccccc1	none (no result: PDI turbidity, SMARCA2 act, NR1D1 modulator)
COc1ccccc1CCNC(=O)c1ccc(NC(=O)CC2SC(N3CCCCC3)=NC2=O)cc1 (stereo not drawn)	Yeast UUG start-1 117 | Yeast UUG start-2 inactive
CC(C)c1ccc(CCNC(=O)c2ccc([N+](=O)[O-])cc2)cc1	Yeast UUG start-1 406 | Yeast UUG start-2 inactive
O=[N+]([O-])c1c(NCc2ccco2)ccc2nonc12	Yeast UUG start-1 134 | Yeast UUG start-2 inactive
C#CCOCCOCCOCCNc1nc(N2CCN(C(=O)[C@H](CC(N)=O)n3cc(C(N)[C@H](C)CC)nn3)CC2)nc(N2CCN(C(=O)[C@H](CC(N)=O)n3cc(C(N)[C@@H](C)CC)nn3)CC2)n1 (stereo partly drawn)	Yeast UUG start-1 108 | Yeast UUG start-2 inactive
CCCC#Cc1cnc2c(c1)C(=O)N([C@H](C)CO)C[C@H](C)[C@@H](CN(C)C(=O)Cc1ccccc1)O2	none (no result: PDI turbidity, SMARCA2 act, NR1D1 modulator)
C[C@@H]1CN([C@H](C)CO)C(=O)Cc2cc(NS(C)(=O)=O)ccc2O[C@@H]1CN(C)C(=O)Nc1ccccc1	none (no result: PDI turbidity, SMARCA2 act, NR1D1 modulator)
CCc1ccc(/C=N/NC(=O)c2cc(C3CC3)nc3ccccc23)s1	Yeast UUG start-1 307 (no result: INS-1E GSIS act, ERp5 block) | Yeast UUG start-2 inactive
COC(=O)c1cnc[nH]1	none
COc1ccc(C(=O)c2cnc[nH]2)cc1	Yeast UUG start-1 171 | Yeast UUG start-2 inactive
CCC(=O)Nc1ccc2c(c1)C(=O)N(C)C[C@H](OC)[C@H](C)CN(C(=O)c1ccncc1)[C@@H](C)CO2	none (no result: PDI turbidity, SMARCA2 act, NR1D1 modulator)
CC(C)(C)SCCNC(=O)c1ccccc1	none (no result: INS-1E GSIS act, ERp5 block)
Cc1ccc(C(=O)NCCSC(C)(C)C)cc1	Yeast UUG start-1 321 (no result: ERp5 block) | Yeast UUG start-2 inactive

From PubChem
